Measurements published in PubChem BioAssay (NCI).
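Five concentrations, 48 hours, 96-well plates. Here, GI50 denotes the concentration required for 50% inhibition of growth. The concentration for full growth arrest is given as TGI.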

Assays:
Test in all cases: growth of human tumour cells (NCI), 48 h
SNB-75 CNS = system: SNB-75 CNS
NCI-H460 lung = system: NCI-H460 lung
DMS 273 small cell lung = system: DMS 273 small cell lung
OVCAR-3 ovarian = system: OVCAR-3 ovarian
UACC-62 melanoma = system: UACC-62 melanoma
KM12 colon = system: KM12 colon
SF-268 CNS = system: SF-268 CNS
SN12C renal = system: SN12C renal
RXF 393 renal = system: RXF 393 renal
SK-MEL-2 melanoma = system: SK-MEL-2 melanoma
SF-295 CNS = system: SF-295 CNS
K-562 leukemia = system: K-562 leukemia
HL-60(TB) leukemia = system: HL-60(TB) leukemia
U251 CNS = system: U251 CNS
CCRF-CEM leukemia = system: CCRF-CEM leukemia
NCI-H322M lung = system: NCI-H322M lung
UACC-257 melanoma = system: UACC-257 melanoma
SK-MEL-28 melanoma = system: SK-MEL-28 melanoma
OVCAR-8 ovarian = system: OVCAR-8 ovarian
EKVX NSCLC = system: EKVX NSCLC
OVCAR-5 ovarian = system: OVCAR-5 ovarian
IGROV1 ovarian = system: IGROV1 ovarian
LOX IMVI melanoma = system: LOX IMVI melanoma
HOP-92 NSCLC = system: HOP-92 NSCLC
HCC-2998 colon = system: HCC-2998 colon
ACHN renal = system: ACHN renal
HCT-116 colon = system: HCT-116 colon
UO-31 renal = system: UO-31 renal
SW-620 colon = system: SW-620 colon
HOP-62 NSCLC = system: HOP-62 NSCLC
RPMI-8226 leukemia = system: RPMI-8226 leukemia
DLD-1 colon = system: DLD-1 colon
DMS 114 small cell lung = system: DMS 114 small cell lung
NCI-H226 lung = system: NCI-H226 lung
LXFL 529 NSCLC = system: LXFL 529 NSCLC
SR leukemia = system: SR leukemia
COLO 205 colon = system: COLO 205 colon
NCI-H522 lung = system: NCI-H522 lung
OVCAR-4 ovarian = system: OVCAR-4 ovarian
MOLT-4 leukemia = system: MOLT-4 leukemia
SK-MEL-5 melanoma = system: SK-MEL-5 melanoma
SK-OV-3 ovarian = system: SK-OV-3 ovarian
NCI-H23 lung = system: NCI-H23 lung
KM20L2 colon = system: KM20L2 colon
MALME-3M melanoma = system: MALME-3M melanoma
M14 melanoma = system: M14 melanoma
TK-10 renal = system: TK-10 renal
HCT-15 colon = system: HCT-15 colon
DU-145 prostate = system: DU-145 prostate
HS 578T breast = system: HS 578T breast
MDA-MB-231 breast = system: MDA-MB-231 breast
MDA-N = system: MDA-N
PC-3 prostate = system: PC-3 prostate
BT-549 breast = system: BT-549 breast
SF-539 CNS = system: SF-539 CNS
NCI/ADR-RES ovarian = system: NCI/ADR-RES ovarian
MCF7 breast = system: MCF7 breast
SNB-19 CNS = system: SNB-19 CNS
A498 renal = system: A498 renal
CAKI-1 renal = system: CAKI-1 renal
T-47D breast = system: T-47D breast
HT29 colon = system: HT29 colon
786-0 renal = system: 786-0 renal
MDA-MB-435 = system: MDA-MB-435
A549 NSCLC = system: A549 NSCLC

CC1(C)OC2OC3COP(=O)(N(CCCl)CCCl)OC3C2O1 (stereo not given)
GI50 (SNB-75 CNS): > 100 µM
TGI (SNB-75 CNS): > 100 µM
GI50 (NCI-H460 lung): > 100 µM
TGI (NCI-H460 lung): > 100 µM
GI50 (DMS 273 small cell lung): > 100 µM
TGI (DMS 273 small cell lung): > 100 µM
GI50 (OVCAR-3 ovarian): > 100 µM
TGI (OVCAR-3 ovarian): > 100 µM
GI50 (UACC-62 melanoma): > 100 µM
TGI (UACC-62 melanoma): > 100 µM
GI50 (KM12 colon): > 100 µM
TGI (KM12 colon): > 100 µM
GI50 (SF-268 CNS): > 100 µM
TGI (SF-268 CNS): > 100 µM
GI50 (SN12C renal): > 100 µM
TGI (SN12C renal): > 100 µM
GI50 (RXF 393 renal): > 100 µM
TGI (RXF 393 renal): > 100 µM
GI50 (SK-MEL-2 melanoma): > 100 µM
TGI (SK-MEL-2 melanoma): > 100 µM
GI50 (SF-295 CNS): > 100 µM
TGI (SF-295 CNS): > 100 µM
GI50 (K-562 leukemia): > 100 µM
TGI (K-562 leukemia): > 100 µM
GI50 (HL-60(TB) leukemia): > 100 µM
TGI (HL-60(TB) leukemia): > 100 µM
GI50 (U251 CNS): > 100 µM
TGI (U251 CNS): > 100 µM
GI50 (CCRF-CEM leukemia): > 100 µM
TGI (CCRF-CEM leukemia): > 100 µM
GI50 (NCI-H322M lung): > 100 µM
TGI (NCI-H322M lung): > 100 µM
GI50 (UACC-257 melanoma): > 100 µM
TGI (UACC-257 melanoma): > 100 µM
GI50 (SK-MEL-28 melanoma): > 100 µM
TGI (SK-MEL-28 melanoma): > 100 µM
GI50 (OVCAR-8 ovarian): > 100 µM
TGI (OVCAR-8 ovarian): > 100 µM
GI50 (EKVX NSCLC): > 100 µM
TGI (EKVX NSCLC): > 100 µM
GI50 (OVCAR-5 ovarian): > 100 µM
TGI (OVCAR-5 ovarian): > 100 µM
GI50 (IGROV1 ovarian): > 100 µM
TGI (IGROV1 ovarian): > 100 µM
GI50 (LOX IMVI melanoma): > 100 µM
TGI (LOX IMVI melanoma): > 100 µM
GI50 (HOP-92 NSCLC): > 100 µM
TGI (HOP-92 NSCLC): > 100 µM
GI50 (HCC-2998 colon): > 100 µM
TGI (HCC-2998 colon): > 100 µM
GI50 (ACHN renal): > 100 µM
TGI (ACHN renal): > 100 µM
GI50 (HCT-116 colon): > 100 µM
TGI (HCT-116 colon): > 100 µM
GI50 (UO-31 renal): > 100 µM
TGI (UO-31 renal): > 100 µM
GI50 (SW-620 colon): > 100 µM
TGI (SW-620 colon): > 100 µM
GI50 (HOP-62 NSCLC): > 100 µM
TGI (HOP-62 NSCLC): > 100 µM
GI50 (RPMI-8226 leukemia): > 100 µM
TGI (RPMI-8226 leukemia): > 100 µM
GI50 (DLD-1 colon): > 100 µM
TGI (DLD-1 colon): > 100 µM
GI50 (DMS 114 small cell lung): > 100 µM
TGI (DMS 114 small cell lung): > 100 µM
GI50 (NCI-H226 lung): > 100 µM
TGI (NCI-H226 lung): > 100 µM
GI50 (LXFL 529 NSCLC): > 100 µM
TGI (LXFL 529 NSCLC): > 100 µM
GI50 (SR leukemia): > 100 µM
TGI (SR leukemia): > 100 µM
GI50 (COLO 205 colon): > 100 µM
TGI (COLO 205 colon): > 100 µM
GI50 (NCI-H522 lung): > 100 µM
TGI (NCI-H522 lung): > 100 µM
GI50 (OVCAR-4 ovarian): > 100 µM
TGI (OVCAR-4 ovarian): > 100 µM
GI50 (MOLT-4 leukemia): > 100 µM
TGI (MOLT-4 leukemia): > 100 µM
GI50 (SK-MEL-5 melanoma): > 100 µM
TGI (SK-MEL-5 melanoma): > 100 µM
GI50 (SK-OV-3 ovarian): > 100 µM
TGI (SK-OV-3 ovarian): > 100 µM
GI50 (NCI-H23 lung): > 100 µM
TGI (NCI-H23 lung): > 100 µM
GI50 (KM20L2 colon): > 100 µM
TGI (KM20L2 colon): > 100 µM
GI50 (MALME-3M melanoma): > 100 µM
TGI (MALME-3M melanoma): > 100 µM
GI50 (M14 melanoma): > 100 µM
TGI (M14 melanoma): > 100 µM
GI50 (TK-10 renal): > 100 µM
TGI (TK-10 renal): > 100 µM
GI50 (HCT-15 colon): > 100 µM
TGI (HCT-15 colon): > 100 µM

NP(=O)(OCc1ccc([N+](=O)[O-])s1)N(CCBr)CCBr (stereo not given)
TGI (SNB-75 CNS): 2.59 µM
TGI (DU-145 prostate): 12.7 µM
TGI (NCI-H460 lung): 1.47 µM
TGI (HS 578T breast): 6.44 µM
TGI (OVCAR-3 ovarian): 2.85 µM
TGI (MDA-MB-231 breast): 9.73 µM
TGI (UACC-62 melanoma): 1.63 µM
TGI (KM12 colon): 2.97 µM
TGI (SF-268 CNS): 5.6 µM
TGI (SN12C renal): 7.58 µM
TGI (RXF 393 renal): 2.35 µM
TGI (SK-MEL-2 melanoma): 8.35 µM
TGI (SF-295 CNS): 4.36 µM
TGI (MDA-N): 3.54 µM
TGI (K-562 leukemia): 23.9 µM
TGI (HL-60(TB) leukemia): 0.46 µM
TGI (U251 CNS): 10.4 µM
TGI (CCRF-CEM leukemia): 5.26 µM
TGI (NCI-H322M lung): 13.2 µM
TGI (UACC-257 melanoma): 3.15 µM
TGI (SK-MEL-28 melanoma): 6.22 µM
TGI (OVCAR-8 ovarian): 2.95 µM
TGI (EKVX NSCLC): 4.75 µM
TGI (OVCAR-5 ovarian): 4.99 µM
TGI (IGROV1 ovarian): 2.9 µM
TGI (LOX IMVI melanoma): 3.14 µM
TGI (PC-3 prostate): 8.45 µM
TGI (BT-549 breast): 0.487 µM
TGI (HOP-92 NSCLC): 3.21 µM
TGI (HCC-2998 colon): 2.04 µM
TGI (SF-539 CNS): 2.5 µM
TGI (NCI/ADR-RES ovarian): 11.7 µM
TGI (MCF7 breast): 2.59 µM
TGI (ACHN renal): 3.06 µM
TGI (HCT-116 colon): 15.3 µM
TGI (UO-31 renal): 3.35 µM
TGI (SW-620 colon): 5.84 µM
TGI (SNB-19 CNS): 15.1 µM
TGI (RPMI-8226 leukemia): 21.8 µM
TGI (NCI-H226 lung): 1.93 µM
TGI (SR leukemia): 0.245 µM
TGI (COLO 205 colon): 4.92 µM
TGI (NCI-H522 lung): 0.925 µM
TGI (A498 renal): 2.94 µM
TGI (OVCAR-4 ovarian): 3.26 µM
TGI (CAKI-1 renal): 0.935 µM
TGI (T-47D breast): 13.9 µM
TGI (MOLT-4 leukemia): 0.576 µM
TGI (SK-MEL-5 melanoma): 1.95 µM
TGI (SK-OV-3 ovarian): 11.6 µM
TGI (NCI-H23 lung): 1.66 µM
TGI (HT29 colon): 5.62 µM
TGI (MALME-3M melanoma): 4.49 µM
TGI (786-0 renal): 4.92 µM
TGI (MDA-MB-435): 2.77 µM
TGI (A549 NSCLC): 3.46 µM
TGI (M14 melanoma): 2.32 µM
TGI (TK-10 renal): 12.3 µM
TGI (HCT-15 colon): 1.1 µM
